We go through two compounds from ChEMBL document CHEMBL5154739, “Structure-activity relationships of N-terminal variants of peptidomimetic tissue transglutaminase inhibitors” (Eur J Med Chem, 2022).

Calls of active or inactive are those of the source. No cut-off for these calls is given here.

In test [1] the target is T1, Protein-glutamine gamma-glutamyltransferase (Homo sapiens) (UniProt P21980).
T1 sequence (whole entry): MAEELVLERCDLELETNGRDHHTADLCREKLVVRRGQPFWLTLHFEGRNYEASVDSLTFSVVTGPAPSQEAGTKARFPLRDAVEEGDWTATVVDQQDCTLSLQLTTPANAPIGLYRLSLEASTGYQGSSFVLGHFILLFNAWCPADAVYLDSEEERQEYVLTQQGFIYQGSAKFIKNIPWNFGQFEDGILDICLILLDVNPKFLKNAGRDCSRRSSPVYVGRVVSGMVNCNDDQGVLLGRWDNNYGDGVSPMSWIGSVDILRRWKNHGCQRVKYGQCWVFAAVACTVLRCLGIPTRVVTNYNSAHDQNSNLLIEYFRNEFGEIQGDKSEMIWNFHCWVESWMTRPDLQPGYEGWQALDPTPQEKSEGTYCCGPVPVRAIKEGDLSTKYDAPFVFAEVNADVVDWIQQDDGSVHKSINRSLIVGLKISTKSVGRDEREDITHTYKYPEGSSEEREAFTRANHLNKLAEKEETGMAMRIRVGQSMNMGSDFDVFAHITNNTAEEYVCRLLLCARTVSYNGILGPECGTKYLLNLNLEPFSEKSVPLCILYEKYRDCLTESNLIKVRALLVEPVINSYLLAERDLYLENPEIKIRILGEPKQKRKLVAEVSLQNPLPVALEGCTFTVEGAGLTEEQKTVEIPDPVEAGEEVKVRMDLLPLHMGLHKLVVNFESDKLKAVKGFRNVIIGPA
In words: Inhibition of TG2 (unknown origin) using Cbz-Glu(gamma-p-nitrophenyl ester)Gly (AL5) as substrate assessed as Kinact/Ki ratio and measured by colorimetric assay.

Test [2] deals with T1, Protein-glutamine gamma-glutamyltransferase (Homo sapiens). In words: Inhibition of TG2 (unknown origin) using Cbz-Glu(gamma-p-nitrophenyl ester)Gly (AL5) as substrate and measured by colorimetric assay.
Test [3] shares this target. Put plainly: Inhibition of GTP binding to TG2 (unknown origin) measured by GTP Gamma-S-FL BODIPY assay.

`C=CC(=O)NCCCC[C@H](NC(=O)c1ccccc1)C(=O)N1CCN(C(=O)c2cccc3ccccc23)CC1`: the Ratio in test [1] was 48.4 10^3/M/min. The compound further showed a Kinact in test [2] of 1.34 min⁻¹.
Regarding `C=CC(=O)NCCCC[C@H](NC(=O)Cc1ccccc1)C(=O)N1CCN(C(=O)c2cccc3ccccc23)CC1`, in test [2], the Kinact is 1.03 min⁻¹. Also, the inhibition result in test [3] was “Active”.
